Patent publication US8431888B2, “Electrospray and nanospray ionization of discrete samples in droplet format” (priority 2009, dated 2013)

Chains of the proteins cited; added tags and fusions are not shown. Residues count along the entry.
UniProt O42275, 24-633: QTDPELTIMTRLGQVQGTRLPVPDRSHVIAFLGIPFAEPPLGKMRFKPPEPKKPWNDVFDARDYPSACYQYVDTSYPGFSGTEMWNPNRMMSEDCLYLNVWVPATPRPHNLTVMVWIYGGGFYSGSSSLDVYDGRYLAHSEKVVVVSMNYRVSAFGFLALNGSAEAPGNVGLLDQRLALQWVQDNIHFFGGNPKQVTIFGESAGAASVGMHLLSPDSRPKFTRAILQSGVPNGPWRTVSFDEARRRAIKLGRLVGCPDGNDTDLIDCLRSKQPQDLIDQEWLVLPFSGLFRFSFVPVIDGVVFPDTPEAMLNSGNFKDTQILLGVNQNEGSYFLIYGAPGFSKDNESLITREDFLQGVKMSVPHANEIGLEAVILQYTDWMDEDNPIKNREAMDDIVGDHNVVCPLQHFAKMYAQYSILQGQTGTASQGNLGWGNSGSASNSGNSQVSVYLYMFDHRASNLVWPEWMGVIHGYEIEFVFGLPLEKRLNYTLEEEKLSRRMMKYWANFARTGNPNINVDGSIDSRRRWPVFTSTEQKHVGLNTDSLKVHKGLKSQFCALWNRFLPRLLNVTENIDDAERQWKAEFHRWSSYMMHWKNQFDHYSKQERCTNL

Target: T1, acetylcholinesterase (AchE) (Electrophorus electricus, UniProt O42275)
T1 construct: purchased Sigma (St. Louis, Mo.) Type VI-S (catalogue number not given)
Type: biochemical
Conditions: 10 inhibitor concentrations, 20 min at room temperature, choline formation; sigmoidal dose-response fit

CNC(=O)Oc1ccc2c(c1)[C@]1(C)CCN(C)[C@@H]1N2C [eserine]
IC50: 63 ± 13 nM
